Tests used:
[1] = 101.33 kPa, Liquid, Vibrating tube method
[2] = excess molar enthalpy (molar enthalpy of mixing); xn = mol fraction of the nth substance listed; details: 100 kPa, Liquid, isothermal titration calorimetry

CCCCOCCCC [dibutyl ether]
[1]
Details | mass density [kg/m3]
288.15 K | 772.45
293.15 K | 768.05
298.15 K | 763.7
303.15 K | 759.4
308.15 K | 755
313.15 K | 750.62
318.15 K | 746.24
323.15 K | 741.87

CCCCOCCCC [dibutyl ether] + CC#N
[2]
Details | excess molar enthalpy [kcal/mol]
298.15 K, x2 = 0.0599 | 0.0776
298.15 K, x2 = 0.113 | 0.131
298.15 K, x2 = 0.1604 | 0.171
298.15 K, x2 = 0.2031 | 0.202
298.15 K, x2 = 0.2416 | 0.226
298.15 K, x2 = 0.3084 | 0.26
298.15 K, x2 = 0.3644 | 0.28
298.15 K, x2 = 0.412 | 0.292
298.15 K, x2 = 0.453 | 0.299
298.15 K, x2 = 0.4886 | 0.302
298.15 K, x2 = 0.5199 | 0.304
298.15 K, x2 = 0.5476 | 0.303
298.15 K, x2 = 0.5722 | 0.301
298.15 K, x2 = 0.5944 | 0.299
298.15 K, x2 = 0.6143 | 0.296
298.15 K, x2 = 0.6367 | 0.292
298.15 K, x2 = 0.6567 | 0.287
298.15 K, x2 = 0.6745 | 0.282
298.15 K, x2 = 0.6906 | 0.277
298.15 K, x2 = 0.7052 | 0.272
298.15 K, x2 = 0.7185 | 0.267
298.15 K, x2 = 0.7306 | 0.262
298.15 K, x2 = 0.7417 | 0.257
298.15 K, x2 = 0.752 | 0.252
298.15 K, x2 = 0.7615 | 0.248
298.15 K, x2 = 0.7952 | 0.225
298.15 K, x2 = 0.8161 | 0.212
298.15 K, x2 = 0.8382 | 0.196
298.15 K, x2 = 0.8615 | 0.177
298.15 K, x2 = 0.8761 | 0.164
298.15 K, x2 = 0.8911 | 0.149
298.15 K, x2 = 0.9068 | 0.132
298.15 K, x2 = 0.9229 | 0.113
298.15 K, x2 = 0.9397 | 0.0921
298.15 K, x2 = 0.9512 | 0.0764
298.15 K, x2 = 0.9629 | 0.0594
298.15 K, x2 = 0.975 | 0.0411
298.15 K, x2 = 0.9873 | 0.021
308.15 K, x2 = 0.0591 | 0.082
308.15 K, x2 = 0.1116 | 0.139
308.15 K, x2 = 0.1586 | 0.181
308.15 K, x2 = 0.2008 | 0.213
308.15 K, x2 = 0.239 | 0.238
308.15 K, x2 = 0.3054 | 0.274
308.15 K, x2 = 0.3612 | 0.295
308.15 K, x2 = 0.4087 | 0.308
308.15 K, x2 = 0.4496 | 0.315
308.15 K, x2 = 0.4852 | 0.319
308.15 K, x2 = 0.5164 | 0.32
308.15 K, x2 = 0.5441 | 0.319
308.15 K, x2 = 0.5688 | 0.318
308.15 K, x2 = 0.591 | 0.315
308.15 K, x2 = 0.611 | 0.311
308.15 K, x2 = 0.6335 | 0.307
308.15 K, x2 = 0.6535 | 0.302
308.15 K, x2 = 0.6715 | 0.297
308.15 K, x2 = 0.6877 | 0.291
308.15 K, x2 = 0.7023 | 0.286
308.15 K, x2 = 0.7157 | 0.28
308.15 K, x2 = 0.7177 | 0.277
308.15 K, x2 = 0.7279 | 0.275
308.15 K, x2 = 0.7386 | 0.268
308.15 K, x2 = 0.7391 | 0.27
308.15 K, x2 = 0.7494 | 0.265
308.15 K, x2 = 0.7589 | 0.26
308.15 K, x2 = 0.7607 | 0.257
308.15 K, x2 = 0.7842 | 0.243
308.15 K, x2 = 0.8092 | 0.227
308.15 K, x2 = 0.8358 | 0.206
308.15 K, x2 = 0.8526 | 0.192
308.15 K, x2 = 0.8701 | 0.176
308.15 K, x2 = 0.8884 | 0.158
308.15 K, x2 = 0.9074 | 0.137
308.15 K, x2 = 0.9273 | 0.112
308.15 K, x2 = 0.941 | 0.0938
308.15 K, x2 = 0.9551 | 0.0736
308.15 K, x2 = 0.9696 | 0.0514
308.15 K, x2 = 0.9846 | 0.0268

Reference: the NIST ThermoML archive (doi:10.1021/acs.jced.5b00838)
